Where two headings read alike, the source gives them in different places.

By UniProt entry, the sequences of proteins in these tests, tags left out. Residues count along the entry.
UniProt O00187, 445-686 limits assumed: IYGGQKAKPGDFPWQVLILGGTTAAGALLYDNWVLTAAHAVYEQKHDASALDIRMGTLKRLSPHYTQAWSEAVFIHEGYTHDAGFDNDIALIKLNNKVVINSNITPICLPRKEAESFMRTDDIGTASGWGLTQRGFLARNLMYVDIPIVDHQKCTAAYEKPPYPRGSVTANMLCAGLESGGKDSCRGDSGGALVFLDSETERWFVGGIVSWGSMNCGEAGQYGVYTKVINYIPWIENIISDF
UniProt O00187, 298-444 partner limits assumed: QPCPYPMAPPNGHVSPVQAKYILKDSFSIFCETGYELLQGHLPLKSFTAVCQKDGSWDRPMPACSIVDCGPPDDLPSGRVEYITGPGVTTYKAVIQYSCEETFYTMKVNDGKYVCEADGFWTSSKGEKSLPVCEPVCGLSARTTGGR

From US12110288B2, “MASP-2 inhibitors and methods of use” (Omeros Corporation, priority 2019, dated 2024) come the findings set out here.

The experiment addresses MASP-2 (CCP1-CCP2-SP) (Homo sapiens, UniProt O00187). Nature of the experiment: Enzymatic Assay for MASP-2. The conditions noted are these: read-out: MASP-2 Ki, fluorogenic substrate based on C2 cleavage site, room temperature, 20 mM HEPES pH 7.4. The procedure: Enzymatic Assay for MASP-2
The MASP-2 assay utilizes a fluorogenic substrate, based on the cleavage site for its natural substrate C2. The assay is run at room temperature in an assay buffer containing 20 mM HEPES, pH 7.4, 140 mM NaCl and 0.1% Tween 20. Assay parameters are adjusted such that the assay is linear with respect to time, enzyme, and substrate concentrations. Under these optimized assays conditions, IC50 values are equivalent to Ki values, except in a few cases of “tight binding” inhibitors. Cases of “tight binding” or possible “slow binding” inhibitors are handled by the methods described in Copeland R. A. (2013) Evaluation of Enzyme Inhibitors in Drug Discovery. 2nd Ed., John Wiley and Sons, Inc., Chapters 5-7.
The MASP-2 assay protocol is carried out as follows. Test compounds are serially diluted in DMSO and then 100 nL of each dilution is transferred to the assay plate(s). […] After 20 min at room temperature, 15 μL of a stop solution (0.1 M acetic acid) is added, mixed and the plates are read on a SpectraMax i3x Microplate Reader and exported as Excel files. Each assay plate included a “no inhibitor” (DMSO Only) control, a “no enzyme” control and a reference inhibitor control. % Activity values=100*(average test comp. fluorescence−average “no enzyme” fluorescence)/(average “DMSO only” fluorescence−average “no enzyme” fluorescence). […]

Regarding `CC(C)Nc1ncc(NCC2(c3ccccc3)CCC2)c(=O)n1CC(=O)NCc1cc2cnccc2[nH]1`, the inhibitory constant (Ki) (in general, the equilibrium dissociation constant of an inhibitor or competing ligand from its target) (tested form: 2TFA) is over 10 µM.

In the case of `CSc1ncc(NC(C)C)c(=O)n1CC(=O)NCc1cc2cnccc2[nH]1`, the Ki was under 0.5 µM.
